Literature values in patent publication US10111869B2, “Reduction of opioid blood fluctuations” (priority 2009, dated 2018).

Details: in vivo

CN1CC[C@]23c4c5ccc(O)c4O[C@H]2C(=O)CC[C@H]3[C@H]1C5 [Hydromorphone]
analgesic potency relative to morphine: about 7.5 times
